The entries are a selection whose mix differs from that of the whole data set. Some of these compounds have results that are not shown, active ones among them. Activity calls are given as the source filed them.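 How the source made its calls: active means inhibition above about 55% (limit read from the data); inactive means the rest.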

A short description of this experiment: blockers of Gli reporter signaling – luciferase luminescence, Sufu-KO-LIGHT cells, uHTS, primary screen (AID 588413).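 Further: 0% = DMSO-treated cells and 100% = wells with medium but no cells.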 The conditions noted are these: Sufu-KO-LIGHT fibroblasts, at 5 µM, stronger effect = higher value.
The term inhibition denotes the drop in the measured response relative to a control, in per cent. In the case of `COc1cc(C(=O)NCC2(N(C)C)CCCCC2)c([N+](=O)[O-])cc1OC`, the inhibition is inactive: 6.56%.

As for `COc1ccc(Cl)cc1C(=O)NCC1(N(C)C)CCCCC1`, the inhibition was inactive: 17.7%. Under `COc1cccc(C(=O)NCC2(N3CCCCC3)CCCCC2)c1` stands inactive: 4.66%. In the case of `O=C(NCC1(N2CCCCC2)CCCCC1)c1cccc(Cl)c1`, the inhibition is inactive: 7.86%. Consider `O=C(OC1CN2CCC1CC2)C(CO)(c1ccccc1)c1ccccc1` (centres undefined), for which the inhibition is inactive: -11.6%. Consider `COc1ccc(Br)c(C(=O)NCC2(N3CCCCC3)CCCCC2)c1`, for which the inhibition was inactive: 5.02%. As to `O=C(OCCN1CCCC1)C(O)(c1ccccc1)c1ccccc1`, the inhibition is inactive: 3.12%. For the compound `CC(C)Oc1ccc(C(=O)NCC2(N(C)C)CCCCC2)cc1`, the inhibition is inactive: 6.78%.

Turning to `CN(C)c1cccc(C(=O)NCC2(N(C)C)CCCCC2)c1`, the inhibition is inactive: 4.39%. In the case of `O=C(NCC1(N2CCCCC2)CCCCC1)c1cc([N+](=O)[O-])ccc1Cl`, the inhibition was inactive: 3.56%. Turning to `CN1[C@@H]2CC[C@H]1CC(OC(=O)C(O)(c1ccccc1)c1ccccc1)C2` (some centres undefined), the inhibition is inactive: 14.6%. Take `COc1cc(SC)ccc1C(=O)NCC1(N(C)C)CCCCC1`: the inhibition is inactive: 7.59%. To `CCN(CC)CC(C)C(C)OC(=O)C(O)(c1ccccc1)c1ccccc1` (centres undefined) belongs inactive: 0.76%.

As for `CC(C)N1C(=O)CC2(CCN(CCOC(=O)C(O)(c3ccccc3)c3ccccc3)CC2)C1=O`, the inhibition is inactive: -1.15%. For `Cc1ccc(C(=O)NCC2(N3CCCCC3)CCCCC2)cc1`, the inhibition is inactive: 20.4%.

Turning to `CN(C)C1CCCC1OC(=O)C(O)(c1ccccc1)c1ccccc1` (centres undefined), the inhibition is inactive: -1.36%. `CN(C)c1ccc(C(=O)NCC2(N(C)C)CCCCC2)cc1`: the inhibition was inactive: 0.83%. With `Cc1ccccc1C(=O)NCC1(N2CCCCC2)CCCCC1`, the inhibition is inactive: -0.52%. Under `O=C(NCC1(N2CCCCC2)CCCCC1)c1cc(F)c(F)cc1Cl` stands inactive: -15.1%; under `C=CCN1CCN(CCOC(=O)C(O)(c2ccccc2)c2ccccc2)CC1`, inactive: 3.31%. With `COc1ccc(C(=O)NCC2(N(C)C)CCCCC2)cc1`, the inhibition was inactive: 1.57%. To `O=C(NCC1(N2CCCCC2)CCCCC1)c1cccc(Br)c1` belongs inactive: 41.8%.

Regarding `Cc1cc(C(=O)NCC2(N3CCCCC3)CCCCC2)ccc1[N+](=O)[O-]`, the inhibition was inactive: 4.36%.

As to `CCN1CCCC(OC(=O)C2(O)c3ccccc3C=Cc3ccccc32)C1` (centres undefined), the inhibition is inactive: 3.77%.

These data come from PubChem BioAssay AID588413 (Sanford-Burnham Center for Chemical Genomics, 2011).
